Measurements reported in US9802944B2, “Bicyclic compounds as autotaxin (ATX) and lysophosphatidic acid (LPA) production inhibitors” (Hoffmann-La Roche Inc., priority 2014, dated 2017).
pIC50: −log10 of the molar value.

target: ATX (human His-tagged) (Homo sapiens (Human), UniProt Q13822); experiment: Human ATX enzyme inhibition assay (fluorescence quenching, MR121 substrate); type: biochemical; conditions: 30 nM ATX, 1 μM MR121 substrate, 30° C., pH 8.0
Method: Production of Human Full Length ATX, with and without his Tag
Autotaxin (ATX-ENPP2) Cloning:
cDNA was prepared from commercial human hematopoietic cells total RNA and used as template in overlapping PCR to generate a full length human ENPP2 ORF with or without a 3′-6×His tag. These full length inserts were cloned into the pcDNA3.1V5-His TOPO (Invitrogen) vector. The DNA sequences of several single clones were verified. The DNA from a correct full length clone was used to transfect Hek293 cells for verification of protein expression. […] ATX Fermentation: Recombinant protein was produced by large-scale transient transfection in 20 L controlled stirred tank bioreactors (Sartorius). During cell growth and transfection, temperature, stirrer speed, pH and dissolved oxygen concentration were maintained at 37° C., 120 rpm, 7.1 and 30% DO, respectively. […] Expression was analyzed by Western Blot, enzymatic assay and/or analytical IMAC chromatography. After cooling the cell suspension to 4° C. in a flow-through heat exchanger, cell separation and sterile filtration of supernatant was performed by filtration through Zeta Plus 60M02 E16 (Cuno) and Sartopore 2 XLG (Sartorius) filter units. The supernatant was stored at 4° C. prior to purification. ATX Purification: 20 liter of culture supernatant were conditioned for ultrafiltration by adding Brij 35 to a final concentration of 0.02% and by adjusting the pH to 7.0 using 1 M HCl. Then the supernatant was first microfiltered through a 0.2 μm Ultran-Pilot Open Channel PES filter (Whatman) and afterwards concentrated to 1 liter through an Ultran-Pilot Screen Channel PES filter with 30 kDa MWCO (Whatman). Prior to IMAC chromatography, NiSO4 was added to a final concentration of 1 mM. The cleared supernatant was then applied to a HisTrap column (GE Healthcare) previously equilibrated in 50 mM Na2HPO4 pH 7.0, 0.5 M NaCl, 10% glycerol, 0.3% CHAPS, 0.02% NaN3. The column was washed stepwise with the same buffer containing 20 mM, 40 mM and 50 mM imidazole, respectively. The protein was subsequently eluted using a linear gradient to 0.5 M imidazole in 15 column volumes. ATX containing fractions were pooled and concentrated using an Amicon cell equipped with a 30 kDa PES filter membrane. The protein was further purified by size exclusion chromatography on Superdex S-200 prep grade (XK 26/100) (GE Healthcare) in 20 mM BICINE pH 8.5, 0.15 M NaCl, 10% glycerol, 0.3% CHAPS, 0.02% NaN3. […] The protein was stored at −80° C. […] 10 μL of MR121 substrate solution was added (1 μM final concentration), mixed 30 times and then incubated for 15 minutes at 30° C.

Row | Structure (SMILES) | pIC50
1 | O=C(c1cc(OCC2CCOCC2)nc(C2CC2)c1)N1CC[C@@H]2CN(C(=O)[C@H]3CCc4[nH]nnc4C3)C[C@@H]2CC1 [Example 6, ((3aR,8aS)-6-(2-Cyclopropyl-6-((tetrahydro-2H-pyran-4-yl)methoxy)isonicotinoyl)octahydropyrrolo[3,4-d]azepin-2(1H)-yl)((S)-4,5,6,7-tetrahydro-1H-benzo[d][1,2,3]triazol-5-yl)methanone] | 8.30
2 | Cn1c(=O)[nH]c2ccc(C(=O)N3C[C@H]4CCN(C(=O)c5cc(OCC6CCOCC6)nc(C6CC6)c5)CC[C@H]4C3)cc21 [Example 1.2, 6-((3aR,8aS)-6-(2-cyclopropyl-6-((tetrahydro-2H-pyran-4-yl)methoxy)isonicotinoyl)decahydropyrrolo[3,4-d]azepine-2-carbonyl)-1-methyl-1H-benzo[d]imidazol-2(3H)-one] | 7.85
3 | O=C(c1cnc(OCC2CCOCC2)c(C2CC2)c1)N1C[C@@H]2CN(C(=O)c3ccc4[nH]nnc4c3)C[C@H]2C1 [Example 1.11, ((3aS,6aS)-5-(1H-benzo[d][1,2,3]triazole-5-carbonyl)hexahydropyrrolo[3,4-c]pyrrol-2(1H)-yl)(5-cyclopropyl-6-((tetrahydro-2H-pyran-4-yl)methoxy)pyridin-3-yl)methanone] | 7.82
4 | O=C(NCc1c[nH]nn1)N1C[C@H]2CCN(C(=O)c3cc(OCC4CCOCC4)nc(C4CC4)c3)CC[C@H]2C1 [Example 5.04, (3aR,8aS)-N-((1H-1,2,3-triazol-4-yl)methyl)-6-(2-cyclopropyl-6-((tetrahydro-2H-pyran-4-yl)methoxy)isonicotinoyl)octahydropyrrolo[3,4-d]azepine-2(1H)-carboxamide] | 8.15
5 | O=C(c1cc(OCC2CCOCC2)cc(C2CC2)c1)N1CC[C@@H]2CN(C(=O)c3ccc4[nH]nnc4c3)C[C@@H]2CC1 [Example 1.14, ((3aR,8aS)-2-(1H-benzo[d][1,2,3]triazole-5-carbonyl)octahydropyrrolo[3,4-d]azepin-6(2H)-yl)(3-cyclopropyl-5-((tetrahydro-2H-pyran-4-yl)methoxy)phenyl)methanone] | 8.05
6 | O=C(c1cc(OCC2CCOCC2)nc(C2CC2)c1)N1CC[C@@H]2CN(C(=O)N3CCc4[nH]nnc4C3)C[C@@H]2CC1 [Example 5.02, ((3aR,8aS)-6-(2-cyclopropyl-6-((tetrahydro-2H-pyran-4-yl)methoxy)isonicotinoyl)octahydropyrrolo[3,4-d]azepin-2(1H)-yl)(6,7-dihydro-1H-[1,2,3]triazolo[4,5-c]pyridin-5(4H)-yl)methanone] | 8.15
7 | O=C(CCc1c[nH]c(=O)o1)N1C[C@H]2CCN(C(=O)c3cc(OCC4CCOCC4)nc(C4CC4)c3)CC[C@H]2C1 [Example 1.21, 5-(3-((3aR,8aS)-6-(2-cyclopropyl-6-((tetrahydro-2H-pyran-4-yl)methoxy)isonicotinoyl)octahydropyrrolo[3,4-d]azepin-2(1H)-yl)-3-oxopropyl)oxazol-2(3H)-one] | 8.30
8 | O=C(c1cc(OCC2CCOCC2)nc(C2CC2)c1)N1CC[C@@H]2CN(C(=O)c3ccc4[nH]nnc4c3)C[C@@H]2CC1 [Example 1.07, ((3aR,8aS)-2-(1H-benzo[d][1,2,3]triazole-5-carbonyl)octahydropyrrolo[3,4-d]azepin-6(7H)-yl)(2-cyclopropyl-6-((tetrahydro-2H-pyran-4-yl)methoxy)pyridin-4-yl)methanone] | 8.15
9 | O=C(c1cc(OCC2CCOCC2)nc(C2CC2)c1)N1CC[C@@H]2CN(C(=O)c3ccc4[nH]c(=O)[nH]c4c3)C[C@@H]2CC1 [Example 1.19, 5-((3aR,8aS)-6-(2-cyclopropyl-6-((tetrahydro-2H-pyran-4-yl)methoxy)isonicotinoyl)decahydropyrrolo[3,4-d]azepine-2-carbonyl)-1H-benzo[d]imidazol-2(3H)-one] | 8.15
10 | O=C(CCc1cnn[nH]1)N1C[C@H]2CN(C(=O)c3cc(OCC4CCOCC4)nc(C4CC4)c3)C[C@@H]2C1 [Example 1.13, 1-((3aS,6aS)-5-(2-cyclopropyl-6-((tetrahydro-2H-pyran-4-yl)methoxy)isonicotinoyl)hexahydropyrro[3,4-c]pyrrol-2(1H)-yl)-3-(1H-1,2,3-triazol-5-yl)propan-1-one] | 8.52
11 | NS(=O)(=O)c1ccc(C(=O)N2C[C@H]3CN(C(=O)c4cnc(OC5CCOCC5)c(C5CC5)c4)C[C@@H]3C2)cn1 [Example 1, 5-((3aS,6aS)-5-(5-Cyclopropyl-6-(tetrahydro-2H-pyran-4-yloxy)nicotinoyl)octahydropyrrolo[3,4-c]pyrrole-2-carbonyl)pyridine-2-sulfonamide] | 7.54
12 | O=C(c1cnc(OCC2CCOCC2)c(C2CC2)c1)N1C[C@@H]2CN(C(=O)[C@@H]3CCc4[nH]nnc4C3)C[C@H]2C1 [Example 1.12, ((3aS,6aS)-5-(5-cyclopropyl-6-((tetrahydro-2H-pyran-4-yl)methoxy)nicotinoyl)hexahydropyrrolo[3,4-c]pyrrol-2(1H)-yl)((R)-4,5,6,7-tetrahydro-1H-benzo[d][1,2,3]triazol-5-yl)methanone] | 8.05
13 | O=C(CCc1c[nH]nn1)N1C[C@H]2CCN(C(=O)c3cc(OCC4CCOCC4)cc(C4CC4)c3)CC[C@H]2C1 [Example 1.15, 1-((3aR,8aS)-6-(3-cyclopropyl-5-((tetrahydro-2H-pyran-4-yl)methoxy)benzoyl)octahydropyrrolo[3,4-d]azepin-2(1H)-yl)-3-(1H-1,2,3-triazol-4-yl)propan-1-one] | 7.49

Further lines, results first:

Row | pIC50 | Structure (SMILES)
14 | 8.22 | O=C(c1cc(OCC2CCOCC2)nc(C2CC2)c1)N1CC[C@@H]2CN(C(=O)[C@@H]3CCc4[nH]nnc4C3)C[C@@H]2CC1 [Example 2.21, ((3aR,8aS)-6-(2-cyclopropyl-6-((tetrahydro-2H-pyran-4-yl)methoxy)isonicotinoyl)octahydropyrrolo[3,4-d]azepin-2(1H)-yl)((R)-4,5,6,7-tetrahydro-1H-benzo[d][1,2,3]triazol-5-yl)methanone]
15 | 7.72 | NS(=O)(=O)c1ccc(C(=O)N2C[C@@H]3CN(C(=O)c4cc(OCC5CCOCC5)nc(C5CC5)c4)C[C@@H]3C2)cc1 [Example 2.27, 4-((3aR,6aS)-5-(2-cyclopropyl-6-((tetrahydro-2H-pyran-4-yl)methoxy)isonicotinoyl)octahydropyrrolo[3,4-c]pyrrole-2-carbonyl)benzenesulfonamide]
